Patent publication US4798834A, “Optionally substituted (3β-9,10-didehydro-2,3-dihydro ergoline as serotonergic function enhancement” (Eli Lilly and Company, priority 1987, dated 1989)

The chains behind the UniProt entries cited, without tags or fusion partners.
UniProt P14842, whole entry: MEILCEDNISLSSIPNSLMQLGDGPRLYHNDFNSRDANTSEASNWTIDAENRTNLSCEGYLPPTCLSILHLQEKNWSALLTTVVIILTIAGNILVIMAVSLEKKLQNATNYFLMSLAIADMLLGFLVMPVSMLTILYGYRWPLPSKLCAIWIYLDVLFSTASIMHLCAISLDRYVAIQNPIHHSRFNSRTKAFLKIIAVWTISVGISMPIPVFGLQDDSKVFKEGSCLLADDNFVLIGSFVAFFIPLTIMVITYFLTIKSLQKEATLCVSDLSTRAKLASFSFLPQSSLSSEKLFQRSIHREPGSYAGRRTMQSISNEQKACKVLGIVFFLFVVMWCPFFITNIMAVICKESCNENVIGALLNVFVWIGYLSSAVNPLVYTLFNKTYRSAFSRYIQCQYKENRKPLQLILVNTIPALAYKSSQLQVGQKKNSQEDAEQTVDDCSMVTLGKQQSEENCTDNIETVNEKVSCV

Target: T1, 5-HT2 receptor (Rattus norvegicus, UniProt P14842)
T1 construct: Rat brain frontal cortex from male Wistar rats; from tissue; host or cells: rat brain frontal cortex (male Wistar), membrane pellet
Assay: binding to 5-HT2 sites ([3H]spiperone displacement, rat brain frontal cortex)
Parameters: species or system rat (Wistar)
Experimental: The pellet from the frontal cortex homogenates was suspended in 0.05 molar (M) Tris buffer containing 10 micromolar (μM) pargyline and 4 millimolar (mM) Ca^++ to give a final protein concentration of 250-350 microgram (μg) per sample. […] All radioactive ligands were obtained from New England Nuclear, Boston, Mass., USA. Specific binding was determined as the difference between total binding and nonspecific binding. Eleven concentrations of each of the compounds tested were used between 0.1 and 10,000 nM. All samples were run in duplicate.

SMILES: O=C(CCCN1CCC2(CC1)C(=O)NCN2c1ccccc1)c1ccc(F)cc1 [spiperone, reference compound]
- IC50: 1 nM
